Laboratory results as given in patent US5241087A (priority 1992, dated 1993).

Assay: Dehydrocyanation equilibrium
Settings: 1M solution exposed to a dehydrocyanation catalyst

Structure (SMILES): N#CC(O)c1ccccc1 (stereo not shown) [Benzaldehyde cyanohydrin]
- conversion to benzaldehyde and hydrogen cyanide at equilibrium: about 7%
